PubChem BioAssay AID1224863 (Southern Research Institute, 2016)
Among all 10,000 compounds or so, about 15 (0.1%) were called active.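 How the source made its calls: active means highest signal at least 8 times the median of untreated cell-only control wells at some dose; inactive means the rest.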 The list is a sample of the results.

Sequences of proteins named here, by UniProt entry; tags and fusion partners are left off. A line that says so, or that is headed by a name, gives the form on record, which may keep a tag or linker.
UniProt P13569, with tags, fused parts or gaps F508del: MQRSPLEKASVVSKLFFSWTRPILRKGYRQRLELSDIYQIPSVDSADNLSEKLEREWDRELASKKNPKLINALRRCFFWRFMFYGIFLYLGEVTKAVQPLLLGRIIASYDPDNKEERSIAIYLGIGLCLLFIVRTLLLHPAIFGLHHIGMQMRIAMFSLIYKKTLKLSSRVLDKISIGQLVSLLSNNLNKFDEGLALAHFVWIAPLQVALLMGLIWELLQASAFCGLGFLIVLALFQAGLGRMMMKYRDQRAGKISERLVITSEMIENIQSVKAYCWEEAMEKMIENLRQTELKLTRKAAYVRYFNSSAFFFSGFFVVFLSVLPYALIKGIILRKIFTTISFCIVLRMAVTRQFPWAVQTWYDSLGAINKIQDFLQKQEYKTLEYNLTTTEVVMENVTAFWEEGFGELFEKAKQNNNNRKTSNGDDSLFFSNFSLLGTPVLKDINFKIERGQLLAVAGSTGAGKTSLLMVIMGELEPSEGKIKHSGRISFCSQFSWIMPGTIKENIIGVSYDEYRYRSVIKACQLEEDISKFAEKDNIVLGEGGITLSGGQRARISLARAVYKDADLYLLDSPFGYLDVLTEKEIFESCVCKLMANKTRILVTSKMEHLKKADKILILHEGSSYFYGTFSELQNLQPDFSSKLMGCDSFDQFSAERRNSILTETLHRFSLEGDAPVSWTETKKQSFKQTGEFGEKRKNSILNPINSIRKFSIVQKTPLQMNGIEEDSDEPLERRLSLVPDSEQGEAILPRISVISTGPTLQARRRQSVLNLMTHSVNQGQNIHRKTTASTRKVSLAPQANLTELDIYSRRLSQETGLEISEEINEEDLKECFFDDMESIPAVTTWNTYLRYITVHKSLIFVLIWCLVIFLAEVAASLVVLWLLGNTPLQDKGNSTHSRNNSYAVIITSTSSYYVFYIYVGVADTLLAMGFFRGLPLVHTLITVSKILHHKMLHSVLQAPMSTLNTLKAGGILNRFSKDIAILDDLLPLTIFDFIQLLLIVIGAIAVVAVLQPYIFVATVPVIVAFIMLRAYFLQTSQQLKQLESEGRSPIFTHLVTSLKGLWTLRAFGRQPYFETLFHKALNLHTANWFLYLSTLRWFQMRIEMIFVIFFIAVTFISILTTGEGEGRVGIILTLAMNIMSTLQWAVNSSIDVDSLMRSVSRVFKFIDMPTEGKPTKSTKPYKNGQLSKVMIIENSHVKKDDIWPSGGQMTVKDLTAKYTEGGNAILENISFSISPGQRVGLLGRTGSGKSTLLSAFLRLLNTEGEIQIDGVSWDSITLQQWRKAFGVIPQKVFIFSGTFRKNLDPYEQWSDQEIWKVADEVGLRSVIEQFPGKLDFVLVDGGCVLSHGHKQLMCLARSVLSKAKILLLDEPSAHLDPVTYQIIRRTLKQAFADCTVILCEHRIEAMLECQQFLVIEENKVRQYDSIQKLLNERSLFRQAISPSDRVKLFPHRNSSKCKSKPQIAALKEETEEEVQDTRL

Columns and labels:
[1] = compounds raising F508del-CFTR protein level – cell-based, HeLa F508del-CFTR, immunofluorescence, viability, primary screen (AID 1224863); details: immunofluorescence total CFTR, 24 h, stronger effect = higher value; min viability: measured here: HeLa viability, alamarBlue, dose 20, library dosed in µg/mL unless noted; viability: measured here: primary viability 10 ug/mL, library dosed in µg/mL unless noted;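 on fold increase: total CFTR protein by anti-CFTR immunofluorescence in fixed cells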
[2] = target: Cystic fibrosis transmembrane conductance regulator (Homo sapiens) (UniProt P13569); test: as above; details: immunofluorescence total CFTR, 24 h; fold increase: measured here: primary screen 10 ug/mL, library dosed in µg/mL, stronger effect = higher value unless noted; max fold increase: dose 10, library dosed in µg/mL, stronger effect = higher value unless noted; outcome: library dosed in µg/mL unless noted

Row | SMILES | viability [1] [%] | fold increase [2] | outcome [2]
1 | Cc1noc2nc(-c3ccco3)cc(C(=O)OCc3cc(=O)n4cc(Cl)ccc4n3)c12 | 101 | 1.11 | inactive
2 | CC1(c2ccccc2)NC(=O)N(Cc2cc(=O)n3ccccc3n2)C1=O (stereo not drawn) | 91 | 1.06 | inactive
3 | Cn1ncc2c(NCC3(N4CCCCC4)CCCCC3)ncnc21 | 96 | 1.05 | inactive
4 | CC(C(=O)NC1CCCCCC1)N1CCN(C(C)C(=O)NC2CC2)CC1 (stereo not drawn) | 95 | 1.06 | inactive
5 | Fc1ccc(-c2[nH]ncc2CNCc2ccccc2Cn2cncn2)cc1 | 104 | 1.01 | inactive
6 | CC(c1nnc(-c2cccs2)o1)N1CCC(O)CC1 (stereo not drawn) | 99 | 1.04 | inactive
7 | Cn1cc(S(=O)(=O)N2CCN(Cc3nc(N)nc(N)n3)CC2)cc1C(N)=O | 91 | 0.98 | inactive
8 | Cn1c(SCc2ccc(-n3cccn3)cc2)nc2ccccc21 | 92 | 0.97 | inactive
9 | Cc1sc2nc(CN3CCCC3)nc(-n3nnc(-c4cccnc4)n3)c2c1C | 84 | 1.04 | inactive
10 | Cc1cc(C)cc(-c2nnc(SC3CCCCC3=O)o2)c1 (stereo not drawn) | 112 | 1.07 | inactive
11 | CC1Oc2ccc(NC(=O)C3=NN(C)C(=O)CC3)cc2NC1=O (stereo not drawn) | 100 | 0.99 | inactive
12 | Cc1ccc(C)c(CS(=O)(=O)Cc2ccccc2SC(F)F)c1 | 86 | 1.03 | inactive
13 | Cc1oc(C)c(C(=O)Nc2ncn[nH]2)c1C | 86 | 0.86 | inactive
14 | CC1CCC(NC(=O)c2ccc([N+](=O)[O-])s2)CC1 (stereo not drawn) | 77 | 0.76 | inactive
15 | Cc1ccc(-n2nnnc2SCc2cn3cccc(C)c3n2)cc1C | 79 | 0.98 | inactive
16 | C=CCOc1ccc(/C(O)=C2/C(=O)C(=O)N(CCCN(C)C)C2c2cccc(Br)c2)cc1 (stereo not drawn) | 91 | 1.07 | inactive
17 | O=S(=O)(c1ccc2ccccc2c1)N1CCN(S(=O)(=O)c2ccccc2Cl)CC1 | 94 | 1.06 | inactive
18 | Clc1ccc(-c2nc(Sc3ccccc3Cl)c3c4c(sc3n2)CCC4)cc1 | 91 | 1.15 | inactive
19 | Cc1c(C2Nc3ccccc3C(=O)N2c2ccc3c(c2)OCO3)cc(C#N)n1C (stereo not drawn) | 100 | 1.05 | inactive
20 | O=C(O)CN1C(=O)COc2cc(Br)ccc21 | 101 | 1.01 | inactive
21 | NC1CC(=O)N(c2ccc(Oc3ccccc3)cc2)C1 (stereo not drawn) | 60 | 0.71 | inactive
22 | Cc1cn2nc(NC3CCCC3)sc2n1 | 96 | 0.88 | inactive

Row | SMILES | viability [1] [%] | fold increase [2] | outcome [2]
23 | COc1cc(OC)c(CNC(C)c2ccc(F)cc2F)c(OC)c1 (stereo not drawn) | 103 | 1.05 | inactive
24 | CSc1ccc(OCC(=O)c2[nH]c(C)c(C(C)=O)c2C)cc1 | 77 | 0.86 | inactive
25 | COCCn1c(SCC(=O)c2[nH]c(C)c(C(C)=O)c2C)nc2sc3c(c2c1=O)CCCC3 | 102 | 1.01 | inactive
26 | CCCn1c(N)c(C(=O)CN2CCC(O)CC2)c(=O)[nH]c1=O | 91 | 1.07 | inactive
27 | COC(=O)c1ccc(C2NC(=O)NC(C)=C2C(=O)c2ccc(Cl)cc2)cc1 (stereo not drawn) | 87 | 1.02 | inactive
28 | N#CCCN1CCN(C(=O)C23CC4CC(CC(C4)C2)C3)CC1 | 86 | 1.05 | inactive
29 | Cc1nn(Cc2ccccc2Cl)c(C)c1CN(C)c1ccc2nnnn2n1 | 101 | 0.94 | inactive
30 | O=C1c2ccccc2S(=O)(=O)NN1Cc1ccc(Br)cc1 | 110 | 0.99 | inactive
31 | Cc1ccc(-c2nnc(NCCC(C)C)c3ccccc23)cc1C | 97 | 0.94 | inactive
32 | CSc1ncccc1C(=O)NC1CC2CC1C1CCCC21 (stereo not drawn) | 103 | 1.14 | inactive
33 | C=CCNC(=O)NC(=O)CN(Cc1nccn1C(F)F)C1CC1 | 83 | 1.18 | inactive
34 | C=CCn1c(SCC)nnc1-c1ccc([N+](=O)[O-])cc1 | 88 | 1.02 | inactive
35 | CC(OC(=O)C1=Cc2ccccc2OC1)C(=O)C12CC3CC(CC(C3)C1)C2 (stereo not drawn) | 91 | 1.1 | inactive
36 | O=C1C2CCCCC2C(=O)N1CC(O)COCc1ccc2c(c1)OCO2 (stereo not drawn) | 99 | 1.1 | inactive
37 | C=CCNCC(F)(F)F | 95 | 1.07 | inactive
38 | O=S(=O)(C1=Cc2ccccc2CC1)N1CCCC1c1ccc(F)cc1 (stereo not drawn) | 97 | 0.99 | inactive
39 | CCCN(CC1CC1)C(=O)CSc1nc(C)nc2sc3c(c12)CCCC3 | 81 | 0.94 | inactive
40 | CC1CCCN(S(=O)(=O)N2CCC(N3CCCc4ccccc43)CC2)C1 (stereo not drawn) | 82 | 0.89 | inactive
41 | O=C(C1CCCO1)N1CCN(Cc2ccc3c(c2)CCO3)CC1 (stereo not drawn) | 90 | 1.05 | inactive
42 | O=c1oc2ccc([N+](=O)[O-])cc2n1CN1CCN(c2cccc(Cl)c2)CC1 | 82 | 0.77 | inactive
43 | Cc1ccc(C2(C)NC(=O)N(Cc3coc(-c4ccc(C)cc4C)n3)C2=O)cc1 (stereo not drawn) | 85 | 0.96 | inactive
44 | O=S(=O)(Nc1cc2c(cc1Br)OCCO2)c1ccc(Br)cc1 | 88 | 1.03 | inactive

Row | SMILES | viability [1] [%] | fold increase [2] | outcome [2]
45 | Cc1cc(C)n2c(SCc3cc(-c4ccccc4)on3)nnc2n1 | 97 | 1.06 | inactive
46 | CCCCS(=O)(=O)Nc1ccc(F)c(N)c1 | 102 | 0.96 | inactive
47 | O=C(CNC(=O)c1ccco1)NC1CCC2CCCCC2C1 (stereo not drawn) | 75 | 1.02 | inactive
48 | Cc1cc(C(=O)CSc2nnc(-c3ccoc3C)o2)c(C)s1 | 84 | 0.89 | inactive
49 | O=C(CSc1nnnn1C1CC1)NC(c1cccs1)C1CCCC1 (stereo not drawn) | 90 | 0.94 | inactive
50 | CCOC(=O)c1oc2ccccc2c1COC(=O)c1ccc2c(c1)CCC(=O)N2 | 81 | 1 | inactive
51 | CCn1cnnc1SCCCCN1C(=O)c2ccccc2C1=O | 106 | 1.03 | inactive
52 | CC(=O)N1C=Cc2ccccc2C1CC(=O)Nc1cc2c(cc1Cl)OCO2 (stereo not drawn) | 89 | 0.97 | inactive
53 | O=S(=O)(Cc1ccc(F)cc1Cl)C12CC3CC(CC(C3)C1)C2 | 104 | 1.1 | inactive
54 | CCOCCCNc1nnc(SC(C(=O)NC(N)=O)C(C)C)s1 (stereo not drawn) | 97 | 0.95 | inactive
55 | Cc1nc(CNC(C(=O)O)C(C)C)cs1 (stereo not drawn) | 88 | 1.06 | inactive
56 | CC(C)Cn1nnc(-c2ccc(Cl)cc2)n1 | 99 | 1.4 | inactive
57 | O=C(O)c1cc(C2CC2)nc2onc(-c3ccco3)c12 | 109 | 1.11 | inactive
58 | N#Cc1nc2c(S(=O)(=O)c3ccc(Cl)cc3)c(N)n(Cc3ccc(C(F)(F)F)cc3)c2nc1C#N | 87 | 0.86 | inactive
59 | Cc1cc(C)n2c(=S)n(CN(C)Cc3ccccc3Cl)nc2n1 | 97 | 0.97 | inactive
60 | CC(NCC(O)c1ccccc1)c1ccccc1 (stereo not drawn) | 103 | 1.06 | inactive
61 | CC(Cc1ccc(Cl)cc1)NC(=O)C1(C)CC1(Cl)Cl (stereo not drawn) | 94 | 0.98 | inactive
62 | COc1ccc2c(COC(=O)c3ccc4c(c3)S(=O)(=O)N=C3CCCCCN34)cc(=O)oc2c1 | 83 | 1.02 | inactive
63 | CCc1c(C)sc2nc(SCCO)n(CCOC)c(=O)c12 | 95 | 1 | inactive
64 | CCOC(=O)C1=C(CC)Nc2ccccc2N=C1NC(=O)C12CC3CC(CC(Cl)(C3)C1)C2 | 85 | 1.09 | inactive
65 | Cn1ccc(S(=O)(=O)N2CCN(C(=O)CCC(=O)c3cccs3)CC2)c1 | 103 | 1.19 | inactive
66 | CCc1cc(OCCCCNC)ccc1Cl | 104 | 1.06 | inactive

Row | SMILES | viability [1] [%] | fold increase [2] | outcome [2]
67 | Cc1c(C(=O)CN2C(=O)NC3(CCOc4ccccc43)C2=O)sc2ccccc12 (stereo not drawn) | 115 | 1.07 | inactive
68 | COC(=O)c1ccc(OCC(=O)c2ccc3c(c2)CCO3)c(OC)c1 | 97 | 1.01 | inactive
69 | CC(CCc1ccco1)NC(=O)N1CCN(Cc2nc3scc(-c4cccs4)c3c(=O)[nH]2)CC1 (stereo not drawn) | 92 | 0.93 | inactive
70 | c1ccc2c(c1)ncn2CN1CCN(Cc2csc3ccccc23)CC1 | 107 | 1.18 | inactive
71 | Cc1cccc(CN2CCN(CN3C(=O)C(=O)N(C(C)C)C3=O)CC2)c1 | 95 | 1.02 | inactive
72 | CN(C)S(=O)(=O)N1CCN(C(=O)Nc2cccc3c2CCCC3)CC1 | 102 | 0.97 | inactive
73 | COCC(C)NC(=O)c1sccc1C (stereo not drawn) | 102 | 0.9 | inactive
74 | CC(C)(C)OC(=O)N1CC=C(n2c(=O)n(CN3CCN(c4ccccc4)CC3)c3ccccc32)CC1 | 98 | 1.06 | inactive
75 | COc1ccc(C)cc1-n1nnnc1SCC1CC1(Cl)Cl (stereo not drawn) | 86 | 0.87 | inactive
76 | Cn1nnnc1SCc1ncc(-c2ccc(F)cc2)o1 | 94 | 1.03 | inactive
77 | CN(C)S(=O)(=O)c1ccc(CN2C(=O)NC(C)(c3ccco3)C2=O)o1 (stereo not drawn) | 97 | 0.98 | inactive
78 | COc1ccc(S(=O)(=O)Nc2ccc(N3CCCC3)cc2)cc1OC | 84 | 0.85 | inactive
79 | N#Cc1ccc(CS(=O)(=O)N2CCCCCCC2)cc1 | 95 | 1.03 | inactive
80 | Nc1cnn(CCO)c1 | 92 | 0.96 | inactive
81 | CC(c1cc2ccccc2o1)N(C)Cc1noc(C(C)(C)C)n1 (stereo not drawn) | 89 | 0.88 | inactive
82 | N#Cc1nncn1-c1ncnc2sc3c(c12)CCC3 | 95 | 1.06 | inactive
83 | CCNc1nc(C)nc2sc(CC)cc12 | 84 | 0.96 | inactive
84 | CCC(C)(C)NC(=O)CCNC(=O)/C=C/c1ccco1 | 80 | 0.85 | inactive
85 | CC(C)Sc1nc2cc(Cl)ccc2c(=O)n1CC1CCCO1 (stereo not drawn) | 90 | 0.87 | inactive
86 | CC(C)(C)N=C1NN=C(c2cccc(F)c2)CS1 | 75 | 0.85 | inactive
